The results in this text go back to US20200216463A1, “THAILANSTATIN ANALOGS” (priority 2017, published 2020).

In this assay the test system is NCI-N87 human gastric cancer xenografts. Description: In vivo efficacy, subcutaneous NCI-N87 xenograft, tumor volume. Also noted: species or system female Balb/c nude mice. The following applies: all dose levels and schedules of the substance (Groups 2-8).

ado-trastuzumab emtansine [Kadcyla]: the “Effect on tumor volume subsequent to treatment (in words)” value is recorded as “reduced tumor volume”.
